We go through one molecule from patent US20260216354A1, “ANTI-CMET ANTIBODY, ANTIBODY-DRUG CONJUGATE, AND PREPARATION METHOD THEREFOR AND USE THEREOF” (MEDILINK THERAPEUTICS (SUZHOU) CO., LTD., priority 2022, published 2026).

In one test the target is T1, mouse cMet-ECD-His (Mus musculus, UniProt P16056).
T1 construct: a mouse cMet ectodomain recombinant protein (mouse cMet-ECD-His, c-MET Protein, Mouse, Recombinant (ECD, His Tag)); purchased Sino Biological, Inc. 50622-M08H
T1 sequence (P16056 25-931 limits assumed): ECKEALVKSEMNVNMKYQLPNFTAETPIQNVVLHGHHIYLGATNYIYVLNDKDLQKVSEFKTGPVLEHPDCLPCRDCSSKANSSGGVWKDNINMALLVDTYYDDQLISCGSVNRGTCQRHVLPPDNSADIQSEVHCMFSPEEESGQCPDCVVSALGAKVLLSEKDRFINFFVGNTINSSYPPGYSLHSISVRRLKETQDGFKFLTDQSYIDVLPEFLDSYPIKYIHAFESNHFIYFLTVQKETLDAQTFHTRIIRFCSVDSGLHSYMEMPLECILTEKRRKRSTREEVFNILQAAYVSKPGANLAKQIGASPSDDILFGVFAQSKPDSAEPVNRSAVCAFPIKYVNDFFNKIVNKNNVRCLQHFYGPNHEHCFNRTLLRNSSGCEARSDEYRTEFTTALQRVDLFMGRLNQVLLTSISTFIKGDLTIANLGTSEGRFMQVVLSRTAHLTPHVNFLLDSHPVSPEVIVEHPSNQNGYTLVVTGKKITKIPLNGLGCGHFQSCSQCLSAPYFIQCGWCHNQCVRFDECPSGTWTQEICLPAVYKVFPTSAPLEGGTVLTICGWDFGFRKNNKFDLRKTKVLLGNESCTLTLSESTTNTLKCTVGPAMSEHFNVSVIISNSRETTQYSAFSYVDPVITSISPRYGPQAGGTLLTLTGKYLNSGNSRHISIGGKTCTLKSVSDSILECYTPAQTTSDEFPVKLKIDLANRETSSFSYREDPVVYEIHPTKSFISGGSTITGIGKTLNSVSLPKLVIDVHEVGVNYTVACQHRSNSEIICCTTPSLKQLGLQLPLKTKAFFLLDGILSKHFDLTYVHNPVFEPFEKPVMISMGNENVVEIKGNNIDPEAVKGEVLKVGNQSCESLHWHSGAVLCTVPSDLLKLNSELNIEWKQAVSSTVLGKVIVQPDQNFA
In words: ELISA cross-detection with mouse cMet. In kind it is binding. The settings on record: FIG. 2. (In general: ELISA stands for enzyme-linked immunosorbent assay.)

The next test relates to MKN45 cells. The test is described as follows: Endocytic activity on MKN45 cells. In kind it is cell-based, human. The settings on record: 10 μg/mL, 37° C.
The target in the next test is T2, h.cMet-ECD-His (Homo sapiens, UniProt P08581).
T2 construct: a human cMet ectodomain recombinant protein (Human HGF R/c-MET Protein, His Tag); purchased Acrobiosystems Co., Ltd. / ACRO Biosystems MET-H5227
T2 sequence (P08581 25-932 limits assumed): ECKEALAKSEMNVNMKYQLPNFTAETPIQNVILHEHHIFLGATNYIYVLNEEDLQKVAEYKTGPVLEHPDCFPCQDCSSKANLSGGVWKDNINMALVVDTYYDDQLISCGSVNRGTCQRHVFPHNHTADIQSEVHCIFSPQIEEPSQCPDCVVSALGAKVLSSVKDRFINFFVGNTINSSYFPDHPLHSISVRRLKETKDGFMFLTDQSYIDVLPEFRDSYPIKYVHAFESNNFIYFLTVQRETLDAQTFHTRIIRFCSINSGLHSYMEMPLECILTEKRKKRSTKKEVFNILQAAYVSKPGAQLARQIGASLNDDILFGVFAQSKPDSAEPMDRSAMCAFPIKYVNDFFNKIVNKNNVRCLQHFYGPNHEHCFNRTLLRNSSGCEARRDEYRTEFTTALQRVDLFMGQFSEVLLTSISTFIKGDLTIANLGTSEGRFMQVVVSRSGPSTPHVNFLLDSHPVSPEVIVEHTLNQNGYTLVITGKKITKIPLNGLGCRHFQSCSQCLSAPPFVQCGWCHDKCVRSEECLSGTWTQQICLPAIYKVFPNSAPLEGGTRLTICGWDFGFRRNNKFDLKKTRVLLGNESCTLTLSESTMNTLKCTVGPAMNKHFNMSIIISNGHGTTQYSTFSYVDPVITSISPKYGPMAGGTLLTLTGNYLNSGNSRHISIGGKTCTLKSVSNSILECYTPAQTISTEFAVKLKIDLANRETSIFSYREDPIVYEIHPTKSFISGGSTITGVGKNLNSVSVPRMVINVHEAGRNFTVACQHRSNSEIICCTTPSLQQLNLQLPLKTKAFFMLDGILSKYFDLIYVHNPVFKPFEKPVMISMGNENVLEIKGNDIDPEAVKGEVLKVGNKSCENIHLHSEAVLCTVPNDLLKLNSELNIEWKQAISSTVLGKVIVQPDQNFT
The test is described as follows: ForteBio dynamic affinity to h.cMet-ECD-His. The following applies: ProA sensor. In kind it is binding. For orientation: Biolayer interferometry detects binding as a change in optical thickness at a sensor tip.

B1: 55A10G6-Hz: humanized anti-c-Met antibody, IgG1/Kappa; HC SEQ ID NO: 58, LC SEQ ID NO: 59 (antibody)
heavy: QIQLVQSGAEVKKPGASVKVSCKASGYTFTDYYLNWVRQAPGQGLEWMGWIFPGSGNTKYSQKFQGRVTLTVDTSASTAYMELSSLRSEDTAVYYCAGGDYGGFTYWGQGTLVTVSSASTKGPSVFPLAPSSKSTSGGTAALGCLVKDYFPEPVTVSWNSGALTSGVHTFPAVLQSSGLYSLSSVVTVPSSSLGTQTYICNVNHKPSNTKVDKKV[human IgG1 Fc omitted here]
light: DIQMTQSPSSLSASVGDRVTITCGASENIYGALNWYQQKPGKAPKLLIYGATNLAAGVPSRFSGSGSGRDFTLTISSLQPEDFATYYCQNVLSEPLTFGQGTKVEIKRTVAAPSVFIFPPSDEQLKSGTASVVCLLNNFYPREAKVQWKVDNALQSGNSQESVTEQDSKDSTYSLSSTLTLSKADYEKHKVYACEVTHQGLSSPVTKSFNRGEC
Take B1: the “cross with mouse cMet (binding)” value with mouse cMet-ECD-His was “do not bind”. Further, the Endocytosis rate % was determined as 18.4% in the test on MKN45 cells (1 h), 33.0% in the test on MKN45 cells (2 h) and 59.1% in the test on MKN45 cells (4 h). Further, in the test with h.cMet-ECD-His, the “kdis” value is 6.06e-05 s⁻¹.
